Laboratory results taken from patent US7919481B2, “Inositol pyrophosphates, and methods of use thereof” (NormOxys, Inc., priority 2002, dated 2011).

Tests used:
C57BL/6 mice = test: Tolerability of intraperitoneal injection in mice; type: in vivo; details: 30, 45 and 60 mM
[1] = 30 and 45 mM
whole blood = test: In vitro incubation of whole blood of three species, summary statements; type: cell-based, human, mouse and pig; details: in vitro incubation with whole blood
Procedure: The effectors kf96 and kf111 (60 mM) were tested for P50 shifts in whole blood of three species: human, mouse and pig. As usual, pH's for the compound-solutions were adjusted to ˜7.0, osmolarities for both solutions were determined (325-373 mOsM) prior to effectors, and whole blood volumes at 1:1 ratios were incubated.

Row | Substance | toxicity by intraperitoneal injection (C57BL/6 mice) | toxicity by direct injection into the vein [1] | lysis of RBCs (whole blood)
1 | IHP Cholesteryoxy Carbonyl Hepta N,N-Dimethyl Cyclohexyl Ammonium Salt [kf16] | non toxic | non-toxic | 
2 | IHP Cholesteryoxy Carbonyl Hepta N,N-Dimethyl Cyclohexyl Ammonium Salt [kf96] |  |  | no lysis of RBCs was observed
